The values below are quoted from earlier work in patent publication US20250320252A1 (The Scripps Research Institute, priority 2021, published 2025).

The conditions of this data set: cited from earlier work.

Regarding Semaglutide, the rodent half-life was around 8 h.
